# Yeast mating assay 2: variants of the scFv Ab-91

Target: peptide PDVDLGDISGINAS, taken from heptad repeat 2 (HR2) of SARS-CoV-2 spike.

The variants keep the light chain, the linker and the frameworks of Ab-91 (scFv order VL, three GGGGS repeats, VH).
VL: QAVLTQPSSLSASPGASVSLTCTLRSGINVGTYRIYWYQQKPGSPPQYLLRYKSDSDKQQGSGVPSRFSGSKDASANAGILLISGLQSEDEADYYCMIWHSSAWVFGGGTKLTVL
VH: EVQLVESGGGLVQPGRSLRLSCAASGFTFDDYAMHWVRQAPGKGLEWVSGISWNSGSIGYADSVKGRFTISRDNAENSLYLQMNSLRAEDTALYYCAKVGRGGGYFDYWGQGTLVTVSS

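The starting antibody came from a phage panning campaign against this peptide. In library AAYL51, one, two or three CDR residues were substituted; doubles and triples were drawn at random. The scFvs were displayed on barcoded MATa yeast, the peptide on MATalpha yeast. Binding brings cells together so that they mate, and sequencing counts the barcode pairs among the diploids. The ratio of observed to expected reads was calibrated, replicate by replicate, on BCL2-family standards whose Kd was known from biolayer interferometry. Each pool was mated in three replicate cultures.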

Variants are written as CDR1, CDR2 and CDR3 of the heavy chain (limits as in the source). Parent: GFTFDDYAMH, GISWNSGSIGYADSVK, VGRGGGYFDY. Scale: log10 of Kd in nM, estimated from mating counts; low values are strong binders. Replicates are averaged; those with no signal do not enter the mean. A pair that was not seen in any replicate is written "nd"; this usually means weak binding, but a binder can also be missed. In this assay the parent's reference entry averaged 1.86; its copy inside this library read 0.88. Empty control strains, which show no peptide, gave a signal in 21% of pairings with library AAYL51; the median was 4.54 and 95% of these signals were weaker than 3.26. No background was subtracted.

| # | CDR-H1 | CDR-H2 | CDR-H3 | log10 Kd (nM), mean | seen in |
|---|---|---|---|---|---|
| 1 | GFTFDDYAMH | GISWNSGTIDYADSVK | DGRGGGYFDY | 5.49 | 2 of 3 |
| 2 | GFTFDDSAFH | GISPNSGSIGYADSVK | VGRGGGYFDY | 1.56 | 1 of 3 |
| 3 | GFTFDDYAMH | GISWFSGSIGYADSAG | VGRGGGYFDY | nd | 0 of 3 |
| 4 | GFTFDFAAMH | GISWNSGSIGYADSVF | VGRGGGYFDY | 4.69 | 1 of 3 |
| 5 | GFTFDDYAMH | GISWNSWSGGYADSVK | VGRGGGYFDP | nd | 0 of 3 |
| 6 | GFTFDDFAMH | GISWWIGSIGYADSVK | VGRGGGYFDY | nd | 0 of 3 |
| 7 | GFTFYDPAMH | FISWNSGSIGYADSVK | VGRGGGYFDY | nd | 0 of 3 |
| 8 | GFTFDDYAMH | GISWNVGSIGFADSVK | SGRGGGYFDY | 4.96 | 3 of 3 |
| 9 | GFTFDAYAMH | GISWNSGSIGYADSVK | VGRGGYYFDY | 4.86 | 2 of 3 |
| 10 | GFTFDDYAMH | GISWNVGSIHYPDSVK | VGRGGGYFDY | 4.66 | 1 of 3 |
| 11 | GFTFDGYAMH | GISWNAGSIGYADSVK | VGRGGGYFTY | 4.98 | 1 of 3 |
| 12 | GFTFDDYAMH | GISWNSGSIGYVDSVK | EGRGGGYFDY | nd | 0 of 3 |
| 13 | GDTFDDYAMH | GISWNSGSIGYADSVK | VGRGGGYLDY | 4.10 | 2 of 3 |
| 14 | GFTFDDYAMH | GISWNSGVIGYADSVK | VGRGGGYFKG | 3.51 | 1 of 3 |
| 15 | GFTFCDYAMH | GISWCSGSIGYADSVK | VGRGGGYFDS | nd | 0 of 3 |
| 16 | GFTFDDPAMH | GISWNSGSDAYADSVK | VGRGGGYFDY | 4.01 | 3 of 3 |
| 17 | GFTFDDYGHH | GISWNSGSIGYADSVK | VLRGGGYFDY | 3.30 | 1 of 3 |
| 18 | GFTFDDYAMH | GISWNSGSIGYADSPG | VGRGGGMFDY | nd | 0 of 3 |
| 19 | GFTFDDYKMH | GISWNSGSIGYADSVK | VGAGGGYFDG | 5.51 | 1 of 3 |
| 20 | GFTFDDYAMH | GISWNCGSIGYADSVR | VGRGWGYFDY | 5.04 | 2 of 3 |
| 21 | GCTFDDYAMH | GLSWNSGSIGYADSVK | VDRGGGYFDY | nd | 0 of 3 |
| 22 | GFTFDDYDMH | WISWNSGEIGYADSVK | VGRGGGYFDY | 3.77 | 2 of 3 |
| 23 | GFTFDDYAMH | GISWNSGSIGYADSVA | VGRGGGHFDY | 5.67 | 2 of 3 |
| 24 | GFTFDDYAMH | GISWNSGSIGYLDSVT | VGRGGPYFDY | 5.71 | 1 of 3 |
| 25 | GFTFDDYAMH | GISWNSGSVGYADSVK | VSRGGGYFTY | nd | 0 of 3 |
| 26 | GFTFDDYAMH | GISPNSGSMGYADSVK | VGRGGCYFDY | nd | 0 of 3 |
| 27 | GFTFDDYAMH | GISWNSGSPGYADSVK | VGRGGGTFDV | 5.59 | 2 of 3 |
| 28 | GFTLDDYAMH | GISWNSGSIGYADSVK | VGRGGGYCDE | 4.79 | 1 of 3 |
| 29 | CFTFDDYAMH | GLSWNSQSIGYADSVK | VGRGGGYFDY | 4.73 | 1 of 3 |
| 30 | GFTFDDYAMH | GISWNVGSITYADSVK | VGRGGRYFDY | 4.78 | 2 of 3 |
| 31 | GFTFDDYAMH | GISWNSGSIGYNLSVK | VGRGGGYMDY | nd | 0 of 3 |
| 32 | GFTFDDYAKH | GISWNSGSIGYADSPK | VGRGSGYFDY | 5.17 | 3 of 3 |
| 33 | GFTFDDYAMH | GISWNSGSIGYALSVK | SGRGGGYIDY | 3.07 | 3 of 3 |
| 34 | GFTFDDYAMH | GISWNSGSIYYAMSVK | VGRGRGYFDY | nd | 0 of 3 |
| 35 | GFTFDDYAMH | GISWNSGSIGYADDVK | VGRGGVYFDY | nd | 0 of 3 |
| 36 | GTTFDDYAMH | GISWNSHNIGYADSVK | VGRGGGYFDY | nd | 0 of 3 |
| 37 | KFTFDLYAMH | GISWNSGSIGYADSVK | VGRGGGYFEY | 3.58 | 3 of 3 |
| 38 | GFTFPDYAMH | GISWNSGSIGYADSVK | VGRGGGCFDY | 3.13 | 3 of 3 |
| 39 | GFTEDDYAMH | GISWNSGSIGYLDSVR | VGRGGGYFDY | 6.08 | 2 of 3 |
| 40 | GFAFDDYAMH | GISWNSGSIGYTDSVK | VGRQGGYFDY | nd | 0 of 3 |
| 41 | GYTFDNYAMH | GISWNSGQIGYADSVK | VGRGGGYFDY | 0.55 | 3 of 3 |
| 42 | GFTFDDYADH | GSSWNSGSIGYADSVS | VGRGGGYFDY | nd | 0 of 3 |
| 43 | GFTFDDYAMD | GISINSGSIGYADSVK | VGRDGGYFDY | 4.59 | 1 of 3 |
| 44 | GFTFDDYAMK | GISWNSGSIGYADCVK | VGRGGGYFSY | nd | 0 of 3 |
| 45 | GFTYDDTAMH | GISWNSGSIGYADSVK | VGRGGGYFDY | 3.58 | 3 of 3 |
| 46 | GFTFDDYAMH | GIIWNSGSIGYAQSVK | VGRGHGYFDY | 3.47 | 2 of 3 |
| 47 | GFTFTDYAMH | GISWNSGSIGYADSVK | VGRAGGYFDY | 2.89 | 3 of 3 |
| 48 | GFTFQSYAMH | GIKWNSGSIGYADSVK | VGRGGGYFDY | nd | 0 of 3 |
| 49 | GFTFTDYAMH | GISWASGSIGYADSVK | VGRGGGYFDY | 3.41 | 3 of 3 |
| 50 | GFTFDDYAMH | GISWNAGSILYADSVK | VGMGGGYFDY | nd | 0 of 3 |
| 51 | GFTFDDVAMH | GISWNSGSIGYADTVK | VGRGGGYFDS | 1.51 | 3 of 3 |
| 52 | GFTFDDYLMH | GISWNNGSIGYADSVK | VGRGGGYFDY | nd | 0 of 3 |
| 53 | GFTFDKYAMH | GISWNSGSIGYADSVK | VGRGGCYFDW | 3.97 | 2 of 3 |
| 54 | GFTFDDYAMH | IISWNSGSIGYAASVK | IGRGGGYFDY | nd | 0 of 3 |
| 55 | GFTFDDYAMH | GISWNSGSISYADSVK | QGRGGGYFYY | nd | 0 of 3 |
| 56 | GFTFCDYAMH | GIMWNSGSIGYADSVK | VGRGGGIFDY | 5.91 | 1 of 3 |
| 57 | GFTFDPYAMH | GISWNSGSIGYADSCK | VGRGGGYFDY | nd | 0 of 3 |
| 58 | GFTFDDYAMG | GISWNSGSIGYADSVK | VGRGGGYRDT | 2.74 | 1 of 3 |
| 59 | GFTFDDYAMH | GISWNSRVIGYAQSVK | VGRGGGYFDY | 4.92 | 1 of 3 |
| 60 | GFTFDDYAMH | GWSGNSGSIGYADSVK | VGAGGGYFDY | nd | 0 of 3 |
| 61 | GFTFDDYEMH | MISANSGSIGYADSVK | VGRGGGYFDY | nd | 0 of 3 |

The last 5 entries again:

CDR-H1	CDR-H2	CDR-H3	log10 Kd (nM), mean	seen in
GFTFDPYAMH	GISWNSGSIGYADSCK	VGRGGGYFDY	nd	0 of 3
GFTFDDYAMG	GISWNSGSIGYADSVK	VGRGGGYRDT	2.74	1 of 3
GFTFDDYAMH	GISWNSRVIGYAQSVK	VGRGGGYFDY	4.92	1 of 3
GFTFDDYAMH	GWSGNSGSIGYADSVK	VGAGGGYFDY	nd	0 of 3
GFTFDDYEMH	MISANSGSIGYADSVK	VGRGGGYFDY	nd	0 of 3

Reference: Engelhart et al. 2022, doi:10.1038/s41597-022-01779-4. File: FLAb, binding data.